The values below come from publication PMC11235159, “Targeting a microbiota Wolbachian aminoacyl-tRNA synthetase to block its pathogenic host” (Science Advances, 2024).

The chains behind the UniProt entries cited, without tags or fusion partners.
UniProt Q5GS31, whole entry: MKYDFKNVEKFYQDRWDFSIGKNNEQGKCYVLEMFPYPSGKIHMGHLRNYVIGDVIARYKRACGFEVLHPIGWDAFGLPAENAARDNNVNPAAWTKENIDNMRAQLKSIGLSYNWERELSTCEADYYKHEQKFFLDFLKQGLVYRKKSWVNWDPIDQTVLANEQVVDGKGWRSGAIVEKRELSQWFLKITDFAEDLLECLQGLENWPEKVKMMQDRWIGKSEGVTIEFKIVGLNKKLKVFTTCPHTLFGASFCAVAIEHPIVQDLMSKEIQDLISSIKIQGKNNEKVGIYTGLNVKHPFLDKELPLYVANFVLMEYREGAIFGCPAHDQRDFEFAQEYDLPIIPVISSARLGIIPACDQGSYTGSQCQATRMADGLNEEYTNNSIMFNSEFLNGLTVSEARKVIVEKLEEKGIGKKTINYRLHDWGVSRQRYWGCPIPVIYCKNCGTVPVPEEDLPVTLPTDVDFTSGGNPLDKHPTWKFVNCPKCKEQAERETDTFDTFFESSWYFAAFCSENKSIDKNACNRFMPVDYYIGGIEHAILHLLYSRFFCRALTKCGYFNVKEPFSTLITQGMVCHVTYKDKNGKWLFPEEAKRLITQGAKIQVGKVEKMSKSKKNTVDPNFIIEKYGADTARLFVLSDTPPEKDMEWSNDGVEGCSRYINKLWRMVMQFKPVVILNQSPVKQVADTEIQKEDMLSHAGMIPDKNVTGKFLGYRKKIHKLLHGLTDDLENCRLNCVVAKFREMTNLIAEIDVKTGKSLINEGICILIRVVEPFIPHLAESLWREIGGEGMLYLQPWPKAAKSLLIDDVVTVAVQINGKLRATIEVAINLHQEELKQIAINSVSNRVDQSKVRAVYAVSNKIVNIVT

Test [1] has as its system W. pipientis (wAlbB) in C6/36 cells. As to the kind of experiment: A·WOL anti-Wolbachia screening assay in infected C6/36 (wAlbB) insect cells. In kind it is cell-based, Wolbachia pipientis. Conditions: read-out: Efficacy in Infected Host EC50; C6/36 (wAlbB) cells, 7 days.
In test [2] the target is T1, Wolbachia LeuRS (full-length) (Wolbachia sp. subsp. Brugia malayi, UniProt Q5GS31).
For test [3], the target named is T1, Wolbachia LeuRS (full-length). As to the kind of experiment: Reactivation rate (half-life of inhibition) of Wolbachia LeuRS after dilution of inhibitor complex. Conditions: time for LeuRS to recover 50% of its activity after 200-fold dilution.

Turning to `COc1ccc(Cl)c2c1B(O)O[C@@H]2CN`, the EC50 in test [1] is 330 nM. The compound also showed an IC50 in test [2] of 290 nM.

`NC[C@H]1OB(O)c2c(OCCCNc3nccs3)ccc(Br)c21`: the “T ½ (half-life inhibition time, reactivation rate)” value in test [3] turned out to be 55 min. The EC50 in test [1] worked out at 570 nM. The compound further returned an IC50 in test [2] of 120 nM.

Turning to `NC[C@H]1OB(O)c2c(OCCCN3CCOCC3)ccc(Br)c21`, the EC50 in test [1] came out at 1430 nM. In addition, the IC50 in test [2] was 210 nM.

Consider `COc1ccc(Br)c2c1B(O)O[C@@H]2CN`, for which the EC50 in test [1] worked out at 360 nM.

On to `CN(C(=O)CCOc1ccc(Br)c2c1B(O)O[C@@H]2CN)c1nccs1`, for which the “T ½ (half-life inhibition time, reactivation rate)” value in test [3] worked out at 2.5 min. Besides, the EC50 in test [1] is 6900 nM. For the same compound, the IC50 in test [2] was determined as 140 nM.

Take `COc1cccc2c1B(O)O[C@@H]2CN`: the EC50 in test [1] is 3770 nM. This compound returned a 50% inhibitory concentration (IC50) in test [2] of 340 nM.

A word on the EC50: it is the concentration giving half of the maximal effect. As a reminder, the IC50 is the concentration needed to halve the response being measured. High values mean lower potency, low ones higher potency.
